Data taken from article PMC4577729, “7-(Pyrazol-4-yl)-3H-imidazo[4,5-b]pyridine-based derivatives for kinase inhibition: Co-crystallisation studies with Aurora-A reveal distinct differences in the orientation of the pyrazole N1-substituent” (Bioorganic & Medicinal Chemistry Letters, 2015).

The chains behind the UniProt entries cited, without tags or fusion partners. Residues count along the entry.
UniProt Q15746, 923-1914 limits assumed: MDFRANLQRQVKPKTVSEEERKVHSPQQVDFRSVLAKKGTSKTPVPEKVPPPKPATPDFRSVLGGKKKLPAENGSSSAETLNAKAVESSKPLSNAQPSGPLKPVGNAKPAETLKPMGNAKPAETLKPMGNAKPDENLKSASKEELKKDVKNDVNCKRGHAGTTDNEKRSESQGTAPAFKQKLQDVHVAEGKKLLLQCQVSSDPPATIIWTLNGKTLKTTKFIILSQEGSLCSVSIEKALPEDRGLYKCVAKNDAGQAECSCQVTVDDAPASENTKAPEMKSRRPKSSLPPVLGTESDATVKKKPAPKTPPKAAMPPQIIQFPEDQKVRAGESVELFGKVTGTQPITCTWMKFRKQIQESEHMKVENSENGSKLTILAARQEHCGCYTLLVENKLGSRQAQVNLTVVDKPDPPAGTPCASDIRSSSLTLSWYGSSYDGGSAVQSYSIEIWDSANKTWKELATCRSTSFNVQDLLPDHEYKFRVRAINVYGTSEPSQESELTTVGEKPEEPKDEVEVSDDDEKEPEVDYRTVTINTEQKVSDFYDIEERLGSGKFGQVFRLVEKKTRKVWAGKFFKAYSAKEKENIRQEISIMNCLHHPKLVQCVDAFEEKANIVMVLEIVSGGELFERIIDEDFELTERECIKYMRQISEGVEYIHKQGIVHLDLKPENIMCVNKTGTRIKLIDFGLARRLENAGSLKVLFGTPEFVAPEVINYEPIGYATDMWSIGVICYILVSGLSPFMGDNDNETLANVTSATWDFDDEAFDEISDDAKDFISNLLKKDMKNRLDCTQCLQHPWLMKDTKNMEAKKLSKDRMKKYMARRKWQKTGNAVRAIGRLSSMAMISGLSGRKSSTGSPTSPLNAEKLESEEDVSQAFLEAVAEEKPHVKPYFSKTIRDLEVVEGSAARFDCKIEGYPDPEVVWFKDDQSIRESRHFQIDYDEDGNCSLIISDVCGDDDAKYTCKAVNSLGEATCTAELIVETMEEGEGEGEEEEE
UniProt P54753, 34-998 limits assumed: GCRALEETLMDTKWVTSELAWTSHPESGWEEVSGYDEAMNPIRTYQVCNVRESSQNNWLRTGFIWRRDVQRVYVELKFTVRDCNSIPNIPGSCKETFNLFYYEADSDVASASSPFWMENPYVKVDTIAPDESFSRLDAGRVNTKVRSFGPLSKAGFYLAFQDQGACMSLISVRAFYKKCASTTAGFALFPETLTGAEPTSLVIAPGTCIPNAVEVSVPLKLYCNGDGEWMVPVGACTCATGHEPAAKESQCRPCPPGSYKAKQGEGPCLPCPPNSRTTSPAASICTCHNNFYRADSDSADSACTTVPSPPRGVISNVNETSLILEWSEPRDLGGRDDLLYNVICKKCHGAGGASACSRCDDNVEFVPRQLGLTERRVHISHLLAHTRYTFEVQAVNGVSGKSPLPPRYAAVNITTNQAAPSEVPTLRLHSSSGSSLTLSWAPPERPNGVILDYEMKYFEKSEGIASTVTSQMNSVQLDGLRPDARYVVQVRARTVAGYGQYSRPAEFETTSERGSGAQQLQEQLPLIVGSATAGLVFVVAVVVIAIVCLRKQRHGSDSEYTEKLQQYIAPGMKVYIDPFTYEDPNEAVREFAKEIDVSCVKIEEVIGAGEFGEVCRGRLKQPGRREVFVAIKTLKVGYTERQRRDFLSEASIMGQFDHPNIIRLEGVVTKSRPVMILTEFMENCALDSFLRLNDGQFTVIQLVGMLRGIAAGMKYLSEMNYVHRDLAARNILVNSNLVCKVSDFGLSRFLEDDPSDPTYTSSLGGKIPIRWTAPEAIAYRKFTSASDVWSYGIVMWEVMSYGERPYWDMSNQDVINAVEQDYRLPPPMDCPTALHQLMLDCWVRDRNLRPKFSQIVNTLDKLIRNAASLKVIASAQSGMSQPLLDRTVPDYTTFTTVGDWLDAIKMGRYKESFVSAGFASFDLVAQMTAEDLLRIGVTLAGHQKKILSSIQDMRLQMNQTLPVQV
UniProt Q16644, whole entry: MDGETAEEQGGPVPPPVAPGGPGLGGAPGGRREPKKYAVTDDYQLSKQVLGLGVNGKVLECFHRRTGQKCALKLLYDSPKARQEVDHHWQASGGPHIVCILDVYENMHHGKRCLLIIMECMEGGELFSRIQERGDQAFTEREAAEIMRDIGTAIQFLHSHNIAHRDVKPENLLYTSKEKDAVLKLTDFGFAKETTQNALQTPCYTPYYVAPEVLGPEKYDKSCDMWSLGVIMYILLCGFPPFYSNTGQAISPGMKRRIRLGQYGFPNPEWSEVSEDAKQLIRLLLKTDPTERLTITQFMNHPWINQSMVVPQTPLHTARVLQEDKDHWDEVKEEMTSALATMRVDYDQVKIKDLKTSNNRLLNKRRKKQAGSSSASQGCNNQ
UniProt P28482, whole entry: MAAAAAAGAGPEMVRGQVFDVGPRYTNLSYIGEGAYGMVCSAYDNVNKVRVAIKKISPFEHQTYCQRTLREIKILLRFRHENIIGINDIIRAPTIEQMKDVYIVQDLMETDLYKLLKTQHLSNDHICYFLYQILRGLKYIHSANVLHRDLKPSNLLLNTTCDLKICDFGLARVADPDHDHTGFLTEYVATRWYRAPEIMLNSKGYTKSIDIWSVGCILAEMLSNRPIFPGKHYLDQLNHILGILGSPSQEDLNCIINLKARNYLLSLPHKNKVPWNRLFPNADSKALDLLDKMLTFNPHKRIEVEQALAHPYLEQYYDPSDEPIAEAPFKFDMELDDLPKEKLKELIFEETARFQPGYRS
UniProt Q9P1W9, whole entry: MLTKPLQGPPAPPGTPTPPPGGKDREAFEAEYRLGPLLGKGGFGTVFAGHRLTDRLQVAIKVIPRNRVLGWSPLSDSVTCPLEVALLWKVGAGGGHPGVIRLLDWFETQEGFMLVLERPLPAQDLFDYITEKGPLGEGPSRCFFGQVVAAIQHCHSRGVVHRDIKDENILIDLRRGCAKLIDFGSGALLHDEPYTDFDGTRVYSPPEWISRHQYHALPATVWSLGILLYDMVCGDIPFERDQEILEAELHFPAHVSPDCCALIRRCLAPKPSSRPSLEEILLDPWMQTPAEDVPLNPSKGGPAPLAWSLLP
UniProt Q9P289, whole entry: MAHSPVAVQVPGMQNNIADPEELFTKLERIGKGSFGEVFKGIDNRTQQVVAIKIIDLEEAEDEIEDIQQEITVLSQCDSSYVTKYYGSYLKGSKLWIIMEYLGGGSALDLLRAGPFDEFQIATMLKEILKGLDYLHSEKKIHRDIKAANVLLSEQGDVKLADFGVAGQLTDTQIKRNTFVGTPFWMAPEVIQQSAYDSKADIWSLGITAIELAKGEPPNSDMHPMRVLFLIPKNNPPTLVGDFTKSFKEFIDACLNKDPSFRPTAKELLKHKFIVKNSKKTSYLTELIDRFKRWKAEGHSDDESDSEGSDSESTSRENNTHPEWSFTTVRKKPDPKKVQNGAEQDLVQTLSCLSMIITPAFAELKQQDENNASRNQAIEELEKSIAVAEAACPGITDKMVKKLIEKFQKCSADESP
UniProt P48730, whole entry: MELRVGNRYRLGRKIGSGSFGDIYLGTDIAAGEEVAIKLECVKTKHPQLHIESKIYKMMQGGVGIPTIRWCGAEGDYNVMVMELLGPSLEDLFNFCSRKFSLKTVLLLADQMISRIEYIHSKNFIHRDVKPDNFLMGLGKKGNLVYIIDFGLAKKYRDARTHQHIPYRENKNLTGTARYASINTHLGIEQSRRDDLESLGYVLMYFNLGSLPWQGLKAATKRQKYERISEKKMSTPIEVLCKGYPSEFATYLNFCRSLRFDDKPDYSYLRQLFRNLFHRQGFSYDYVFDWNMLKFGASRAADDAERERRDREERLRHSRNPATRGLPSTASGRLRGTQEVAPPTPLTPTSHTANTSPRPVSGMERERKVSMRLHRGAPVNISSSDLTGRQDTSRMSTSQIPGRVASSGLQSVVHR
UniProt Q13177, whole entry: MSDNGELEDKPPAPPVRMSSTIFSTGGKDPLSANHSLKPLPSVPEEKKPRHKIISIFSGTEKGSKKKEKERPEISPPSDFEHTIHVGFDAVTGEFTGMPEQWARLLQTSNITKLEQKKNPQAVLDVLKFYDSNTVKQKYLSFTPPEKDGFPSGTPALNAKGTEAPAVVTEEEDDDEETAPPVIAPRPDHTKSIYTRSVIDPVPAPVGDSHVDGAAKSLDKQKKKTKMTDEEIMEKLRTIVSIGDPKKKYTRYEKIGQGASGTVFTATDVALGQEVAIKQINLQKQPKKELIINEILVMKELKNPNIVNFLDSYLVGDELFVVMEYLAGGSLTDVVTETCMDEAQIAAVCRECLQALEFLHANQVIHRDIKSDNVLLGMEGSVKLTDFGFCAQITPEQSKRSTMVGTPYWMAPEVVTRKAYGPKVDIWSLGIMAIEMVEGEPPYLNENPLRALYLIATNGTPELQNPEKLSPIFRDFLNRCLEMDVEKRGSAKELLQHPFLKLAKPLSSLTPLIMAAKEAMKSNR
UniProt P31751, whole entry: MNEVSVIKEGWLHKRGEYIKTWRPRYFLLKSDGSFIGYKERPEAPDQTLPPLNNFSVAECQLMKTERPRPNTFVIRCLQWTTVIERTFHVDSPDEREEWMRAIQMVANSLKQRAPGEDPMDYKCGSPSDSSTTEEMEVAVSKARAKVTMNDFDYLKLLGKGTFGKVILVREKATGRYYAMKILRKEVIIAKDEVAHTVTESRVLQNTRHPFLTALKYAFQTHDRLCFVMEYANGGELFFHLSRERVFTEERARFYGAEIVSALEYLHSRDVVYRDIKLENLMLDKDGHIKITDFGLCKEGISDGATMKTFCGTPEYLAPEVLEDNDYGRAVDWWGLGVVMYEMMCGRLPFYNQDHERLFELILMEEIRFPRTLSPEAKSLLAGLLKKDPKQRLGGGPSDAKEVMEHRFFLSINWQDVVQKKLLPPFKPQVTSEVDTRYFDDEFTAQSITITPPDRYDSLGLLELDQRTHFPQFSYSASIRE
UniProt P27361, whole entry: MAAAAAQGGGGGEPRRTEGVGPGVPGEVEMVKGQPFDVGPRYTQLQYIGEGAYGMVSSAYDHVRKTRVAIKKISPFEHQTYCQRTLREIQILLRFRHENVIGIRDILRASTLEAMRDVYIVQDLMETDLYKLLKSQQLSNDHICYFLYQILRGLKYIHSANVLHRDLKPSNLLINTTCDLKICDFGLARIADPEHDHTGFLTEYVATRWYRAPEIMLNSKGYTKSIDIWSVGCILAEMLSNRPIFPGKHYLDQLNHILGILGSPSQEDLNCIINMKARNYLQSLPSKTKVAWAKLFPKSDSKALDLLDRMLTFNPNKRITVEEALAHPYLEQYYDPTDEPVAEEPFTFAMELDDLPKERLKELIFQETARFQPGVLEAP
UniProt Q16584, whole entry: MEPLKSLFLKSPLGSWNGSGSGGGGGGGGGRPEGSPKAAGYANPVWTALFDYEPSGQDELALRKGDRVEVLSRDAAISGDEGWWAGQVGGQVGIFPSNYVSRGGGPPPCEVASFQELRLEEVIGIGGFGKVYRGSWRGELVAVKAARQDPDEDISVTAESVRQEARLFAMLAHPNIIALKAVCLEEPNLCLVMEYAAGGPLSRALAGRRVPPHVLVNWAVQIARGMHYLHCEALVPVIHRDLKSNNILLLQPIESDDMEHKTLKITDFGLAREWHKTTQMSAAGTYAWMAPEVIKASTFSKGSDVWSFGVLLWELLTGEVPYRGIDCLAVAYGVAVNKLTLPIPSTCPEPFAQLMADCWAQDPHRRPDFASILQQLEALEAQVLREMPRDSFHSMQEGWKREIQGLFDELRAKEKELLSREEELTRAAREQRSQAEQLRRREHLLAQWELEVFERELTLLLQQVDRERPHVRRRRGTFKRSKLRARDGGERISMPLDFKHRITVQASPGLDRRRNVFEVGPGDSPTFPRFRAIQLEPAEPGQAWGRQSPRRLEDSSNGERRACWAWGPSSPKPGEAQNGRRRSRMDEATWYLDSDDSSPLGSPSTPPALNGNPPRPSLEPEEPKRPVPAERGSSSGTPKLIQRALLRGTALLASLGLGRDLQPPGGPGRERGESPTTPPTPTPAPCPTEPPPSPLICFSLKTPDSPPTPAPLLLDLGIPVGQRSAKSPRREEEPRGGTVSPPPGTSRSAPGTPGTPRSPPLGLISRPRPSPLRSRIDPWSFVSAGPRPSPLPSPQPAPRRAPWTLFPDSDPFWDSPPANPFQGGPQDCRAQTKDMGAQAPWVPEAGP
UniProt Q16539, whole entry: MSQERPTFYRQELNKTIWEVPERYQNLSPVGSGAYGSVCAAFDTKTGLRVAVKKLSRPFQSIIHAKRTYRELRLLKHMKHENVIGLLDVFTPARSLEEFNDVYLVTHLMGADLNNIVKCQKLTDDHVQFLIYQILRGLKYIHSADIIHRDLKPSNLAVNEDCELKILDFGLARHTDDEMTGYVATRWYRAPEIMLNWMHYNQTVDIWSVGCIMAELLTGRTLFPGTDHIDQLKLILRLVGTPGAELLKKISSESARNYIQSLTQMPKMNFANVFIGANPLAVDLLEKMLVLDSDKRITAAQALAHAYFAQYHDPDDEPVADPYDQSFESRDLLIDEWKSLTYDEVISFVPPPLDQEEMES

Experiments:
SmMLCK = SmMLCK (Homo sapiens, UniProt Q15746); assay: Kinase selectivity profiling; details: 1 µM, assay duplicates
Aurora B = Aurora B (Homo sapiens, UniProt Q96GD4); assay: Aurora-B microfluidic kinase assay; details: read-out: Aurora-B IC50; biochemical; mean of two determinations or mean ±SD for n > 2
[1] = system: HCT116 human colon carcinoma cells; assay: HCT116 cell growth inhibition; details: read-out: GI50 HCT116, 72 h incubation
EPH-B3 = EPH-B3 (Homo sapiens, UniProt P54753); assay: Kinase selectivity profiling; type: biochemical; details: 1 µM, assay duplicates
Procedure: (§1) [20] Kinase selectivity profiling for compounds 7a, 7d, 14d and 14g was carried out at the International Centre for Protein Kinase Profiling, Division of Signal Transduction Therapy, University of Dundee.
(§2) Table S1: Kinase selectivity profiling of compounds 7a and 7d in a 102-kinase panel screened at a concentration of 1 µM.
(§3) Table S2: Kinase selectivity profiling of compounds 14d and 14g in a 105-kinase panel screened at a concentration of 1 µM.

MARK3 = MARK3 (Homo sapiens, UniProt P27448); assay: Kinase selectivity profiling; type: biochemical; details: 1 µM, assay duplicates
Procedure: as §1, §2, §3

CHK2 = CHK2 (Homo sapiens, UniProt O96017); assay: Kinase selectivity profiling; type: biochemical; details: 1 µM, assay duplicates
Procedure: as §1, §2, §3

DYRK3 = DYRK3 (Homo sapiens, UniProt O43781); assay: Kinase selectivity profiling; type: biochemical; details: 1 µM, assay duplicates
Procedure: as §1, §2, §3

SYK = SYK (Homo sapiens, UniProt P43405); assay: Kinase selectivity profiling; type: biochemical; details: 1 µM, assay duplicates
Procedure: as §1, §2, §3

PAK5 = PAK5 (Homo sapiens, UniProt Q9P286); assay: Kinase selectivity profiling; type: biochemical; details: 1 µM, assay duplicates
Procedure: as §1, §2, §3

MINK1 = MINK1 (Homo sapiens, UniProt Q8N4C8); assay: Kinase selectivity profiling; type: biochemical; details: 1 µM, assay duplicates
Procedure: as §1, §2, §3

PKCa = PKCa (Homo sapiens, UniProt P17252); assay: Kinase selectivity profiling; type: biochemical; details: 1 µM, assay duplicates
Procedure: as §1, §2, §3

JAK2 = JAK2 (Homo sapiens, UniProt O60674); assay: Kinase selectivity profiling; type: biochemical
Procedure: as §1, §2, §3

CAMKKb = CAMKKb (Homo sapiens, UniProt Q96RR4); assay: Kinase selectivity profiling; type: biochemical; details: 1 µM, assay duplicates
Procedure: as §1, §2, §3

ERK8 = ERK8 (Homo sapiens, UniProt Q8TD08); assay: Kinase selectivity profiling; type: biochemical
Procedure: as §1, §2, §3

IRAK4 = IRAK4 (Homo sapiens, UniProt Q9NWZ3); assay: Kinase selectivity profiling; type: biochemical; details: 1 µM, assay duplicates
Procedure: as §1, §2, §3

MAPKAP-K3 = MAPKAP-K3 (Homo sapiens, UniProt Q16644); assay: Kinase selectivity profiling; type: biochemical; details: 1 µM, assay duplicates
Procedure: as §1, §2, §3

ERK2 = ERK2 (Homo sapiens, UniProt P28482); assay: Kinase selectivity profiling; type: biochemical; details: 1 µM, assay duplicates
Procedure: as §1, §2, §3

Src = Src (Homo sapiens, UniProt P12931); assay: Kinase selectivity profiling; type: biochemical; details: 1 µM, assay duplicates
Procedure: as §1, §2, §3

TrkA = TrkA (Homo sapiens, UniProt P04629); assay: Kinase selectivity profiling; type: biochemical
Procedure: as §1, §2, §3

MST2 = MST2 (Homo sapiens, UniProt Q13188); assay: Kinase selectivity profiling; type: biochemical; details: 1 µM, assay duplicates
Procedure: as §1, §2, §3

RSK2 = RSK2 (Homo sapiens, UniProt P51812); assay: Kinase selectivity profiling; type: biochemical; details: 1 µM, assay duplicates
Procedure: as §1, §2, §3

ROCK 2 = ROCK 2 (Homo sapiens, UniProt O75116); assay: Kinase selectivity profiling; type: biochemical; details: 1 µM, assay duplicates
Procedure: as §1, §2, §3

DYRK2 = DYRK2 (Homo sapiens, UniProt Q92630); assay: Kinase selectivity profiling; type: biochemical; details: 1 µM, assay duplicates
Procedure: as §1, §2, §3

PIM2 = PIM2 (Homo sapiens, UniProt Q9P1W9); assay: Kinase selectivity profiling; type: biochemical; details: 1 µM, assay duplicates
Procedure: as §1, §2, §3

MST4 = MST4 (Homo sapiens, UniProt Q9P289); assay: Kinase selectivity profiling; type: biochemical; details: 1 µM, assay duplicates
Procedure: as §1, §2, §3

CK1 = CK1 (Homo sapiens, UniProt P48730); assay: Kinase selectivity profiling; type: biochemical; details: 1 µM, assay duplicates
Procedure: as §1, §2, §3

PAK2 = PAK2 (Homo sapiens, UniProt Q13177); assay: Kinase selectivity profiling; type: biochemical; details: 1 µM, assay duplicates
Procedure: as §1, §2, §3

PHK = PHK (Homo sapiens, UniProt Q16816); assay: Kinase selectivity profiling; type: biochemical; details: 1 µM, assay duplicates
Procedure: as §1, §2, §3

EPH-A2 = EPH-A2 (Homo sapiens, UniProt P29317); assay: Kinase selectivity profiling; type: biochemical; details: 1 µM, assay duplicates
Procedure: as §1, §2, §3

MKK1 = MKK1 (Homo sapiens, UniProt Q02750); assay: Kinase selectivity profiling; type: biochemical; details: 1 µM, assay duplicates
Procedure: as §1, §2, §3

PKBb = PKBb (Homo sapiens, UniProt P31751); assay: Kinase selectivity profiling; type: biochemical; details: 1 µM, assay duplicates
Procedure: as §1, §2, §3

RIPK2 = RIPK2 (Homo sapiens, UniProt O43353); assay: Kinase selectivity profiling; type: biochemical; details: 1 µM, assay duplicates
Procedure: as §1, §2, §3

ERK1 = ERK1 (Homo sapiens, UniProt P27361); assay: Kinase selectivity profiling; type: biochemical; details: 1 µM, assay duplicates
Procedure: as §1, §2, §3

PKA = PKA (Homo sapiens, UniProt P17612); assay: Kinase selectivity profiling; type: biochemical; details: 1 µM, assay duplicates
Procedure: as §1, §2, §3

Aurora A = Aurora A (Homo sapiens, UniProt O14965); assay: Kinase selectivity profiling; type: biochemical; details: 1 µM, assay duplicates
Procedure: as §1, §2, §3

IGF-1R = IGF-1R (Homo sapiens, UniProt P08069); assay: Kinase selectivity profiling; type: biochemical; details: 1 µM, assay duplicates
Procedure: as §1, §2, §3

MLK3 = MLK3 (Homo sapiens, UniProt Q16584); assay: Kinase selectivity profiling; type: biochemical; details: 1 µM, assay duplicates
Procedure: as §1, §2, §3

NEK6 = NEK6 (Homo sapiens, UniProt Q9HC98); assay: Kinase selectivity profiling; type: biochemical; details: 1 µM, assay duplicates
Procedure: as §1, §2, §3

p38a MAPK = p38a MAPK (Homo sapiens, UniProt Q16539); assay: Kinase selectivity profiling; type: biochemical; details: 1 µM, assay duplicates
Procedure: as §1, §2, §3

CSK = CSK (Homo sapiens, UniProt P41240); assay: Kinase selectivity profiling; type: biochemical; details: 1 µM, assay duplicates
Procedure: as §1, §2, §3

PAK4 = PAK4 (Homo sapiens, UniProt O96013); assay: Kinase selectivity profiling; type: biochemical; details: 1 µM, assay duplicates
Procedure: as §1, §2, §3

NUAK1 = NUAK1 (Homo sapiens, UniProt O60285); assay: Kinase selectivity profiling; type: biochemical; details: 1 µM, assay duplicates
Procedure: as §1, §2, §3

SMILES: Cc1nn(C)cc1-c1nc2c(-c3cnn(Cc4ccc(Cl)cc4)c3)c(Cl)cnc2[nH]1
- SmMLCK % activity remaining (SmMLCK): 49%
- pIC50 (Aurora B): 6.57
- GI50 [1]: 0.24 µM
- EPH-B3 % activity remaining (EPH-B3): 86%
- MARK3 % activity remaining (MARK3): 25%
- CHK2 % activity remaining (CHK2): 38%
- DYRK3 % activity remaining (DYRK3): 19%
- SYK % activity remaining (SYK): 74%
- PAK5 % activity remaining (PAK5): 49%
- MINK1 % activity remaining (MINK1): 44%
- PKCa % activity remaining (PKCa): 57%
- JAK2 inhibition (JAK2; 1 μM): greater than 80%
- JAK2 % activity remaining (JAK2; 1 µM, assay duplicates): 4%
- CAMKKb % activity remaining (CAMKKb): 32%
- ERK8 inhibition (ERK8; 1 μM): greater than 80%
- ERK8 % activity remaining (ERK8; 1 µM, assay duplicates): 8%
- IRAK4 % activity remaining (IRAK4): 52%
- MAPKAP-K3 % activity remaining (MAPKAP-K3): 79%
- ERK2 % activity remaining (ERK2): 24%
- Src % activity remaining (Src): 32%
- TrkA inhibition (TrkA; 1 μM): greater than 80%
- TrkA % activity remaining (TrkA; 1 µM, assay duplicates): 8%
- MST2 % activity remaining (MST2): 77%
- RSK2 % activity remaining (RSK2): 43%
- ROCK 2 % activity remaining (ROCK 2): 57%
- DYRK2 % activity remaining (DYRK2): 15%
- PIM2 % activity remaining (PIM2): 98%
- MST4 % activity remaining (MST4): 58%
- CK1 % activity remaining (CK1): 92%
- PAK2 % activity remaining (PAK2): 103%
- PHK % activity remaining (PHK): 68%
- EPH-A2 % activity remaining (EPH-A2): 91%
- MKK1 % activity remaining (MKK1): 27%
- PKBb % activity remaining (PKBb): 105%
- RIPK2 % activity remaining (RIPK2): 59%
- ERK1 % activity remaining (ERK1): 30%
- PKA % activity remaining (PKA): 62%
- Aurora A % activity remaining (Aurora A): 1%
- IGF-1R % activity remaining (IGF-1R): 8%
- MLK3 % activity remaining (MLK3): 3%
- NEK6 % activity remaining (NEK6): 77%
- p38a MAPK % activity remaining (p38a MAPK): 91%
- CSK % activity remaining (CSK): 80%
- PAK4 % activity remaining (PAK4): 38%
- NUAK1 % activity remaining (NUAK1): 4%

pIC50: −log10 of the molar value.
